Like-named read-outs stand apart in the source and are kept apart here.
Key:
[1] = system: Lactuca sativa; settings: 50 mg/L, 25° C., 7 days, visual assessment
[2] = system: Solanum nigrum; settings: 50 mg/L, 25° C., 7 days, visual assessment
[3] = system: Amaranthus retroflexuso
[4] = system: Setaria viridis
[5] = 50 mg/L, 25° C., 7 days, visual assessment

SMILES	Herbicidal activity (0 to 5) Lactuca sativa [1]	Herbicidal activity (0 to 5) Solanum nigrum [2]	Herbicidal activity (0 to 5) Amaranthus retroflexuso [3, 5]	Herbicidal activity (0 to 5) Setaria viridis [4, 5]	Kind of herbicidal effect, Setaria viridis [4, 5]	Kind of herbicidal effect, Solanum nigrum [2]	Herbicidal activity (0 to 5) Amaranthus retroflexuso ([3]; in vivo)	Herbicidal activity (0 to 5) Setaria viridis ([4]; in vivo)
Oc1ccc(O)c(OCc2ccccc2)c1 [Compound (a), 2-benzyloxy-1,4-hydroquinone]	4.8	5 (suppressed by 80% or more)	5 (suppressed by 80% or more)	1 (suppressed by less than 20%)	IglrUr	–	–	–
O=Cc1cc2c(cc1O)OCO2 [Compound (d), 4,5-methylenedioxysalicylaldehyde]	2 (suppressed by a range from 20% to less than 40%)	–	0	0	–	Iglr	–	–
CC1(C)Oc2cc(O)c(C=O)cc2O1 [Compound (e), 2,2-dimethyl-5-formyl-6-hydroxy-1,3-benzodioxol]	–	–	–	–	–	–	0	0
